Measurements reported in patent publication US12473298B2, “Amide compounds, preparation method therefor, and use thereof in the medical field” (Shanghai Synergy Pharmaceutical Sciences Co., Ltd., priority 2019, dated 2025).

Test system: human diffuse large B-cell lymphoma cells (WSU-DLCL2 cell)

IC50: 0.0835 µM
SMILES: CC[C@H](C)n1cc(C)c2c(C(=O)NCc3c(C)cc(C)[nH]c3=O)cc(-c3ccc(N4CCNCC4)nc3)cc21 [GSK126, reference compound]
